Results as given in patent US10465009B2, “BCMA antigen binding proteins” (Amgen Inc., priority 2012, dated 2019).

T1: BCMA (Homo sapiens, UniProt Q02223, N81S)
T1 construct: cells transiently transfected to express full length BCMA, TACI, or BAFF-R; expressed in transfected cells
T1 sequence (Q02223 1-184 N81S): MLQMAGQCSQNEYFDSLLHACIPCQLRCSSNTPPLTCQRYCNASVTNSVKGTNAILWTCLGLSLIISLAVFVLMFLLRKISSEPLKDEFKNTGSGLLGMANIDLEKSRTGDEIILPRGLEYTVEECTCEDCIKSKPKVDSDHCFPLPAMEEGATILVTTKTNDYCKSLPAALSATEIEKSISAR

T2: huBCMA on H929 cells (Homo sapiens, UniProt Q02223, N81S)
T2 construct: endogenous in cells; host or cells: H929 human multiple myeloma cell line
T2 sequence (Q02223 1-184 N81S): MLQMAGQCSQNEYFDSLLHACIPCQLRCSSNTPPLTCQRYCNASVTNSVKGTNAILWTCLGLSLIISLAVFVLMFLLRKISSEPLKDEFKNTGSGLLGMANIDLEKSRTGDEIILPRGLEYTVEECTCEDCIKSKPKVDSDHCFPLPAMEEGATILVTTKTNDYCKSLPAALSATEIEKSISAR


Assays:
[1] = biological target: T1, BCMA; assay: FACS binding on cells transiently transfected to express full length BCMA; details: MFI vs negative control
Procedure: An important criterion is exquisite selectivity for wild-type human BCMA expressed on the surface of cells. FACS binding on cells transiently transfected to express full length BCMA, TACI, or BAFF-R was performed using standard techniques. Approximately 40×10^6 of the transiently-transfected target cells were resuspended in a staining solution (2% goat serum, 1% rabbit serum, 0.02% azide in PBS) and aliquoted into round-bottom, 96-well plate (Corning Incorp., Acton, Mass.) as per the experiment design. The cells were incubated at 4 degrees celsius for 30 minutes to block non-specific sites. The antibodies were titrated into the staining solution. The cells were rinsed in a rinse solution (PBS+0.02% azide) by resuspending the cells in 200 ul/well. The cells were centrifuged at 1500 rpm at 4 degrees celsius for 7 minutes. The rinse solution was removed and the rinse step was repeated. The cells were resuspended in the appropriate antibody solution (see the matrix in TABLE 4) at 30 ul/well and incubated at 4 degrees celsius for 30 minutes. […] For the mouse IgG1 negative control and the two mouse antibodies (1.183 and 1.288), the secondary reagent was an anti-mouse IgG-PE conjugate (BD Pharmingen Cat. 550589). The cells/antibodies were rinsed as described above to remove excess/unbound antibody. […] Samples were read at 532 nm wavelength on FACS. […]

[2] = biological target: T2, huBCMA on H929 cells; assay: FACS binding to native BCMA on H929 myeloma cells; details: flow cytometry; muteins relative to parental 2A1
Procedure: Approximately 10 to 40×10^6 of H929 myeloma cells were resuspended in a staining solution (2% goat serum, 1% rabbit serum, 0.02% azide in PBS) and aliquoted into round-bottom, 96-well plate (Corning Incorp., Acton, Mass.) as per the experiment design. The cells were incubated at 4 degrees celsius for 30 minutes to block non-specific sites. The antibodies were titrated into the staining solution. The cells were rinsed in a rinse solution (PBS+0.02% azide) by resuspending the cells in 200 ul/well. The cells were centrifuged at 1500 rpm at 4 degrees celsius for 7 minutes. The rinse solution was removed and the rinse step was repeated. […] The huIgG1 negative control's secondary reagent was a biotinylated anti-huIgG (Jackson Labs, Bar Harbor, Me., Cat. 109-065-098), followed by a streptavidin-phycoerythrin (SA-PE) conjugate (BD Pharmingen, San Diego, Calif., Cat. 554061). […] The cells/antibodies were rinsed as described above to remove excess/unbound antibody. […] Samples were read at 532 nm wavelength on FACS.
To further characterize the engineered mutein antibodies, they were tested for the ability to bind BCMA by FACS analysis. […] The supernatants were removed and the cell pellets were resuspended in 0.2 mL/tube 4% paraformaldehyde in PBS and analyzed by flow cytometry

[3] = tested on: MM1R myeloma cell line; assay: Flow cytometry DM1 delivery assay (anti-DM1 antibody), MM1R; type: cell-based, human
Text: The human myeloma tumor cell line MM1R, which expresses a relatively low level of BCMA, was used as a relative positive control to assess whether sufficient DM1 was delivered into the cell by 2A1CV5-MCC-DM1 to induce cell death.

| Molecule | BCMA (FACS binding) [1] | binding to BCMA on H929 cells [2] | delivery of DM1 into MM1R cells [3] |
| --- | --- | --- | --- |
| 2A1: parental fully human anti-huBCMA mAb, Vh SEQ ID NO:214, Vl SEQ ID NO:248; heavy chain SEQ ID NO:287, light chain 288 (antibody) heavy: EVQLVESGGGLVKPGRSLRLSCTASGFTFGDYALSWFRQAPGKGLEWVGVSRSKAYGGTTDYAASVKGRFTISRDDSKSFAYLQMNSLKTEDTAVYYCCSSGYSSGWTPFDYWGQGTLVTVSSASTKGPSVFPLAPSSKSTSGGTAALGCLVKDYFPEPVTVSWNSGALTSGVHTFPAVLQSSGLYSLSSVVTVPSSSLGTQTYICNVNHKPSNTKVDKKV[omitted - human IgG1 Fc] light: QSVLTQPPSASGTPGQRVTISCSGSSSNIGSNTVNWYQQLPGTAPKLLIFNYHQRPSGVPDRFSGSKSGSSASLAISGLQSEDEADYYCAAWDDSLNGWVFGGGTELTVLGQPKAAPSVTLFPPSSEELQANKATLVCLISDFYPGAVTVAWKADSSPVKAGVETTTPSKQSNNKYAASSYLSLTPEQWKSHRSYSCQVTHEGSTVEKTVAPTECS | + (A sample was considered positive for binding if the MFI was two times the negative control value) | bound to human BCMA |  |
| 2A1CV5-MCC-DM1 (conjugate) heavy: EVQLVESGGGLVKPGGSLRLSCAASGFTFGDYALSWFRQAPGKGLEWVGVSRSKAYGGTTDYAASVKGRFTISRDDSKSTAYLQMNSLKTEDTAVYYCASSGYSSGWTPFDYWGQGTLVTVSSASTKGPSVFPLAPSSKSTSGGTAALGCLVKDYFPEPVTVSWNSGALTSGVHTFPAVLQSSGLYSLSSVVTVPSSSLGTQTYICNVNHKPSNTKVDKKV[omitted - human IgG1 Fc] light: QSVLTQPPSASGTPGQRVTISCSGSSSNIGSNTVNWYQQLPGTAPKLLIFNYHQRPSGVPDRFSGSKSGSSASLAISGLQSEDEADYYCAAWDDSLNGWVFGGGTKLTVLGQPKAAPSVTLFPPSSEELQANKATLVCLISDFYPGAVTVAWKADSSPVKAGVETTTPSKQSNNKYAASSYLSLTPEQWKSHRSYSCQVTHEGSTVEKTVAPTECS |  |  | delivered DM1 |
